{"source": "patent US12691111B2", "about": "“SETD2 inhibitors and related methods and uses, including combination therapies” (EPIZYME, INC., priority 2020, dated 2026)", "experiment_in_all_cases": "7-day co-treatment combination study, CellTiter-Glo, Loewe Volume", "key": {"KMS-11": {"tested_on": "KMS-11", "conditions": "KMS-11 multiple myeloma cells, 7-day co-treatment with Cpd. No. 15"}, "JVM2": {"tested_on": "JVM2", "type": "cell-based", "conditions": "JVM2 mantle cell lymphoma cells, 7-day co-treatment with Cpd. No. 15"}, "RPMI-8226": {"tested_on": "RPMI-8226", "type": "cell-based", "conditions": "RPMI-8226 multiple myeloma cells, 7-day co-treatment with Cpd. No. 15"}, "Z138": {"tested_on": "Z138", "type": "cell-based", "conditions": "Z138 mantle cell lymphoma cells, 7-day co-treatment with Cpd. No. 15"}, "KMS34": {"tested_on": "KMS34", "type": "cell-based", "conditions": "KMS34 multiple myeloma cells, 7-day co-treatment with Cpd. No. 15"}, "JEKO1": {"tested_on": "JEKO1", "type": "cell-based", "conditions": "JEKO1 mantle cell lymphoma cells, 7-day co-treatment with Cpd. No. 15"}}, "data": [{"compound": "CC(C)C[C@H](NC(=O)[C@H](Cc1ccccc1)NC(=O)c1cnccn1)B(O)O", "note": "[Bortezomib, bortezomib]", "values": [{"measurement": "Combination effect (Loewe Volume class) of Cpd. No. 15 with combination partner", "setting": "KMS-11", "value": "Additivity (between 1 and −1: additivity)"}, {"measurement": "Combination effect (Loewe Volume class) of Cpd. No. 15 with combination partner", "setting": "JVM2", "value": "Additivity (between 1 and −1: additivity)"}, {"measurement": "Combination effect (Loewe Volume class) of Cpd. No. 15 with combination partner", "setting": "RPMI-8226", "value": "Additivity (between 1 and −1: additivity)"}, {"measurement": "Combination effect (Loewe Volume class) of Cpd. No. 15 with combination partner", "setting": "Z138", "value": "Additivity (between 1 and −1: additivity)"}, {"measurement": "Combination effect (Loewe Volume class) of Cpd. No. 15 with combination partner", "setting": "KMS34", "value": "Additivity (between 1 and −1: additivity)"}, {"measurement": "Combination effect (Loewe Volume class) of Cpd. No. 15 with combination partner", "setting": "JEKO1", "value": "Additivity (between 1 and −1: additivity)"}]}]}
